Assay results from patent US11666572B2, “Treatment of HER2 positive cancers” (Seagen Inc., priority 2017, dated 2023).

What was measured:
[1] = tested on: Calu-3 NSCLC xenograft model; experiment: Calu-3 NSCLC xenograft model, tumor growth inhibition; type: in vivo, Mice; settings: study day 28, tucatinib 50 mg/kg orally twice per day, trastuzumab 20 mg/kg IP once every three days, from study day 7
Description: (§1) The term “tumor growth inhibition (TGI) index” refers to a value used to represent the degree to which an agent (e.g., tucatinib, an anti-HER2 antibody, or a combination thereof) inhibits the growth of a tumor when compared to an untreated control. The TGI index is calculated for a particular time point (e.g., a specific number of days into an experiment or clinical trial) according to the following formula:
(§2) [formula] where “Tx Day 0” denotes the first day that treatment is administered (i.e., the first day that an experimental therapy or a control therapy (e.g., vehicle only) is administered) and “Tx Day X” denotes X number of days after Day 0. Typically, mean volumes for treated and control groups are used.
(§3) For the Calu-3 study, tucatinib was administered orally at a dose of 50 mg/kg twice per day for 21 days, beginning on study day 7. […] Seven doses of trastuzumab were administered. A vehicle-only group was included as a negative control. Three individual animals received dose holidays (one in the negative control group and two in the combination therapy group).

[2] = tested on: NCI-H2170 NSCLC xenograft model; experiment: NCI-H2170 NSCLC xenograft model, tumor growth inhibition; type: in vivo, Mice; settings: study day 39, tucatinib 50 mg/kg orally twice per day, trastuzumab 20 mg/kg IP twice per week, from study day 18
Description: as §1, §2, §3
For the NCI-H2170 study, tucatinib was administered orally at a dose of 50 mg/kg twice per day for 21 days, beginning on study day 18. […] A vehicle-only group was included as a negative control.

[3] = tested on: CTG-0784 CRC PDX model; experiment: CTG-0784 CRC PDX model, tumor growth inhibition; type: in vivo, Mice; settings: study day 29, tucatinib 50 mg/kg orally twice per day, trastuzumab 20 mg/kg IP once every three days
Description: as §1, §2
(§4) Tucatinib was administered orally at a dose of 50 mg/kg twice per day for 28 days (study days 0-27). […] A vehicle-only group was included as a negative control.

[4] = tested on: CTG-0137 esophageal cancer PDX model; experiment: CTG-0137 esophageal cancer PDX model, tumor growth inhibition; type: in vivo, Mice; settings: study day 15, tucatinib 50 mg/kg orally twice per day, trastuzumab 20 mg/kg IP once every three days
Description: as §1, §2, §4

[5] = tested on: CTG-0138 esophageal cancer PDX model; experiment: CTG-0138 esophageal cancer PDX model, tumor growth inhibition; type: in vivo, Mice; settings: study day 30, tucatinib 50 mg/kg orally twice per day, trastuzumab 20 mg/kg IP once every three days
Description: as §1, §2, §4

[6] = tested on: CTG-0927 HER2 positive cholangiocarcinoma PDX model; experiment: CTG-0927 cholangiocarcinoma PDX model, tumor growth inhibition; type: in vivo, Mice; settings: study day 28, tucatinib 50 mg/kg orally twice per day, trastuzumab 20 mg/kg IP once every three days
Description: as §1, §2, §4

[7] = tested on: GXA 3038 gastric cancer PDX model; experiment: GXA 3038 gastric cancer PDX model, tumor growth inhibition; type: in vivo, Mice; settings: study day 28, tucatinib 50 mg/kg orally twice per day, trastuzumab 20 mg/kg IP once every three days
Description: as §1, §2, §4

[8] = tested on: GXA 3039 gastric cancer PDX model; experiment: GXA 3039 gastric cancer PDX model, tumor growth inhibition; type: in vivo, Mice; settings: study day 29, tucatinib 50 mg/kg orally twice per day, trastuzumab 20 mg/kg IP once every three days
Description: as §1, §2, §4

[9] = tested on: GXA 3054 gastric cancer PDX model; experiment: GXA 3054 gastric cancer PDX model, tumor growth inhibition; type: in vivo, Mice; settings: study day 17, tucatinib 50 mg/kg orally twice per day, trastuzumab 20 mg/kg IP once every three days
Description: as §1, §2, §4

[10] = reference 23; cited from earlier work
[11] = tested on: HER2 positive metastatic CRC (wild-type KRAS exon 2); settings: HERACLES patients, previous treatment with cetuximab or panitumumab; cited from earlier work

Row | Substance | Observed TGI (%) [1] [%] | Observed TGI (%) [2] [%] | Observed TGI (%) [3] [%] | Observed TGI (%) [4] [%] | Observed TGI (%) [5] [%] | Observed TGI (%) [6] [%] | Observed TGI (%) [7] [%] | Observed TGI (%) [8] [%] | Observed TGI (%) [9] [%] | Blood-brain barrier penetration [10] | ORR on previous treatment [11] [%]
1 | trastuzumab | 86 | 61 | 36 | 55 | −34 | 63 | 50 | 38 | 93 | do not penetrate the blood-brain barrier | –
2 | cetuximab | – | – | – | – | – | – | – | – | – | – | 0
